{
  "source": "patent US11299641B2",
  "about": "“Curable liquid composition, composition-accommodating container, liquid composition discharging device, cured material, and method of manufacturing cured material” (RICOH COMPANY, LTD., priority 2018, dated 2022)",
  "tested_on": "female mice",
  "assay": "skin sensitization test in accordance with the Local Lymph Node Assay (LLNA) method, SI value",
  "type": "in vivo",
  "details": "test substance 50.0 w/v percent in acetone/olive oil 4 to 1, 25 μL per ear once a day for three days, BrdU intake",
  "method": "The SI value was measured in the manner described below according to the skin sensitization test in accordance with the Local Lymph Node Assay (LLNA) method.\nα-hexylcinnamaldehyde (HCA; product of FUJIFILM Wako Pure Chemical Corporation) was used as positive control material.\nA liquid mixture containing acetone (product of FUJIFILM Wako Pure Chemical Corporation) and olive oil (product of Fudimi Pharmaceutical Co., Ltd.) in a volume ratio of 4 to 1 was used as medium.\nFor each of the test substances, the positive control, or the medium control, female mice were acclimated for 8 days including 6-day quarantine. No abnormalities were found in all the mice during the quarantine/acclimation period.\nBased on the body weights measured two days before the initiation of sensitization, the mice were categorized into 2 groups (4 mice/group) by the body weight stratified random sampling method so that the body weight of each individual was within −20 to +20 percent of the average body weight of all the individuals. […]\nAll the animals used for the test were observed once or more times a day from the day of the initiation of sensitization to the day of the removal of the auricular lymph node (i.e., the day when the animals were transferred from the animal room). […] Also, the weight average and the standard error for each group were calculated. […]",
  "data": [
    {"substance": "Ethylene oxide-modified bisphenol A diacrylate [Example A3]", "values": [
      {"measurement": "SI value in the LLNA test", "value": 1.2}
    ]}
  ]
}
